A short description of one data set: in vitro. The following applies: rat, hepatocytes.
For data set [1] the following is noted: human, plasma.

In ChEMBL document CHEMBL4304838, “Building Bridges in a Series of Estrogen Receptor Degraders: An Application of Metathesis in Medicinal Chemistry” (ACS Med Chem Lett, 2019) one finds hepatocyte CLint and Fu data, which are given here for 1 compound.

As usually defined, the hepatocyte CLint is the capacity of the preparation to metabolise the compound, expressed as a volume cleared per time. `C[C@@H]1Cc2c([nH]c3ccccc23)[C@@H](c2c(F)cc(OCCN3CC(CF)C3)cc2F)N1CC(C)(C)F`: in the data set “in vitro”, the hepatocyte CLint is 11 µL/min/1e6 cells. In data set [1], the Fu is listed as 0.23%.
